Reference: ChEMBL document CHEMBL4765468, “Development of Novel Tetrahydroquinoline Inhibitors of NLRP3 Inflammasome for Potential Treatment of DSS-Induced Mouse Colitis” (J Med Chem, 2021)
Calls of active or inactive are those of the source. The rule behind the calls is not given here.

The chains behind the UniProt entries cited, without tags or fusion partners.
UniProt Q8R4B8, whole entry: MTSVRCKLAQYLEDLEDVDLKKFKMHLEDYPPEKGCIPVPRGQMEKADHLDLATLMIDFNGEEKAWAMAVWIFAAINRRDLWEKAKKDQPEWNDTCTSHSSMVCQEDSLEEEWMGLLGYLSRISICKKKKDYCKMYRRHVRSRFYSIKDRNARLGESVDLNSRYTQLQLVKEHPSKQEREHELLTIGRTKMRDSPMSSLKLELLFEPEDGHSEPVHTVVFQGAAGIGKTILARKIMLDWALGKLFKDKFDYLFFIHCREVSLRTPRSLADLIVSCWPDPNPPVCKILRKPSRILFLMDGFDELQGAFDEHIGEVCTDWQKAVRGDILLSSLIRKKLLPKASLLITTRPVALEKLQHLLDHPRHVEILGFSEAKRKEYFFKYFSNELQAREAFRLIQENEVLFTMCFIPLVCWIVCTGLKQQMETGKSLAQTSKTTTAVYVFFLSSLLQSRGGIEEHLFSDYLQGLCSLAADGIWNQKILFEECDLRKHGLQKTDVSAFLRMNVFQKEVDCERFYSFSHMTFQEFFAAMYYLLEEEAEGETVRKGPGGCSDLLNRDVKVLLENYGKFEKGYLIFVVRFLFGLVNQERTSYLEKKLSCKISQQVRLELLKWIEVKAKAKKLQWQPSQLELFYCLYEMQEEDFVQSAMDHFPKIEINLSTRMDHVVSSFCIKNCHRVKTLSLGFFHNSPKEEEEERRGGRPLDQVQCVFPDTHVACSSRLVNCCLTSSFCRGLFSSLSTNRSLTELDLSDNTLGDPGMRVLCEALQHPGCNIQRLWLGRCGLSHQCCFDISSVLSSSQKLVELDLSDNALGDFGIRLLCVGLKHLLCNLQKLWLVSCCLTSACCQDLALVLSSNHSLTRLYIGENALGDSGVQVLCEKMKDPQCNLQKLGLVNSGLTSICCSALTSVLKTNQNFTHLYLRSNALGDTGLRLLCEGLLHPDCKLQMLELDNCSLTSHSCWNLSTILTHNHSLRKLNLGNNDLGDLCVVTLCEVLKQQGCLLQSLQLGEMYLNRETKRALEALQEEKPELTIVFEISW
UniProt Q9NPP4, whole entry: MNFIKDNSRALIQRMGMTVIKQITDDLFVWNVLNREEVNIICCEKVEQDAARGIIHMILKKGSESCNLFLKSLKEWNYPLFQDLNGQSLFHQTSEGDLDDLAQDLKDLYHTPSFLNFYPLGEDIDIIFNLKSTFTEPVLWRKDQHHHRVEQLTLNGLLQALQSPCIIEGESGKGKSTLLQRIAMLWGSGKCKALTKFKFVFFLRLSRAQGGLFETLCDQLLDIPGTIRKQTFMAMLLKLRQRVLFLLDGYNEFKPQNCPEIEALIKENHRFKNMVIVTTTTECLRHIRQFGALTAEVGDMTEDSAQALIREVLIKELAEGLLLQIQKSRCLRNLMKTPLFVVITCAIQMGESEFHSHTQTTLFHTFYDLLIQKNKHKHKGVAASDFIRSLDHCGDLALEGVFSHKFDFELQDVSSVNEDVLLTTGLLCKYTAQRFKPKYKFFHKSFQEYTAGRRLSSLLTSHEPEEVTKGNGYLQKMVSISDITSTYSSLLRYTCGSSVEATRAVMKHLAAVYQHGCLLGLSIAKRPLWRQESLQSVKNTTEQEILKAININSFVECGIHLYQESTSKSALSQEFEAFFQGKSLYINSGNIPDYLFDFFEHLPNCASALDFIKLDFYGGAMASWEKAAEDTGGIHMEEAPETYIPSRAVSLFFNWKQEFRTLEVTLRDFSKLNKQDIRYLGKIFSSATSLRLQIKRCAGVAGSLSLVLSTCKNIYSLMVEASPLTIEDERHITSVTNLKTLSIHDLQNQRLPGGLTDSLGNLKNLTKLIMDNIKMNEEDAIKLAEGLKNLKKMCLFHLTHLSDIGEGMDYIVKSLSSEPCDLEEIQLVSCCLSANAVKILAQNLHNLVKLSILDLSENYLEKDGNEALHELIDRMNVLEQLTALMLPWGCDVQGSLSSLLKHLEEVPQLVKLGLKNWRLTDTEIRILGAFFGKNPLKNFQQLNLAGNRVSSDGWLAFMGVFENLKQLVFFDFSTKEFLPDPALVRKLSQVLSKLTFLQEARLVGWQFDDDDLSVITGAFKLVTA

Experiments:
Type in all cases: tissue-based
Details in all cases: dose 5-15 µM, time 28.0 hrs
[1] = molecular target: NACHT, LRR and PYD domains-containing protein 3 (Mus musculus) (UniProt Q8R4B8); experiment: Inhibition of NLRP3 inflammasome activation in PMA-stimulated mouse BMDM cells assessed as reduction in IL-1beta secretion at 5 to 15 uM pre-treated for 24 hrs followed by stimulation with LPS for 3 hrs and ATP for 1 hr by ELISA analysis
[2] = molecular target: NLR family CARD domain-containing protein 4 (Homo sapiens) (UniProt Q9NPP4); experiment: Inhibition of NLRC4 in PMA-stimulated human THP-1 cells assessed as reduction in IL-1beta production at 5 to 15 uM pre-treated for 24 hrs followed by stimulation with LPS for 3 hrs and Salmonella typhimurium flagellin for 1 hr by ELISA analysis
[3] = molecular target: T1, Interferon-inducible protein AIM2 (Homo sapiens) (UniProt O14862); experiment: Inhibition of AIM2 in PMA-stimulated human THP-1 cells transfected with poly(dA:dT) assessed as reduction in IL-1beta production at 5 to 15 uM pre-treated for 24 hrs followed by stimulation with LPS for 4 hrs by ELISA analysis
T1 sequence (whole entry): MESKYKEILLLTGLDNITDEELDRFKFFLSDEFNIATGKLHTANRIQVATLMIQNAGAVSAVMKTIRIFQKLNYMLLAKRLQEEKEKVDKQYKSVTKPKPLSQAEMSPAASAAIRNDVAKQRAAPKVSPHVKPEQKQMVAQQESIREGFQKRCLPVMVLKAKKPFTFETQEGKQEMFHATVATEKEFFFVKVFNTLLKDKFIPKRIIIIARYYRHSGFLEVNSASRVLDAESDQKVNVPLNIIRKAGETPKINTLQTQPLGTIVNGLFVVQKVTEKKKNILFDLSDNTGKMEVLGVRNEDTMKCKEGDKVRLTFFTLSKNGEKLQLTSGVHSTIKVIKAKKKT

- inhibition [1]: Active
- inhibition [2]: inactive
- inhibition [3]: inactive
SMILES: CC(=O)c1ccc(S(=O)(=O)N(c2ccc3c(c2)N(S(C)(=O)=O)CCC3)S(=O)(=O)c2ccc(C(C)=O)cc2)cc1
